{"source": "patent US20020086390", "biological_target": "GST-Rac1 preloaded with GTPγS, P63000"}
{"protein": "inactive PAK I holoenzyme (p60) purified from rabbit reticulocytes (protein) SDNGELEDKPPAPPVRMSSTIFSTGGKDPLSANHSLKPLPSVPEEKKPRNKIISIFSGTEKGSKKKEKERPEISPPSDFEHTIHVGFDAVTGEFTGMPEQWARLLQTSNITKLEQKKNPQAVLDVLKFYDSNTVKQKYLSFTPPEKDGFPSGAPALNTKVSETSAVVTEEDDDDEEAAPPVIAPRPDHTKSIYTRSVIDPIPAPVGDSHVDSGAKSSDKQKKKTKMTDEEIMEKLRTIVSIGDPKKKYTRYEKIGQGASGTVFTATDVALGQEVAIKQINLQKQPKKELIINEILVMKELKNPNIVNFLDSYLVGDELFVVMEYLAGGSLTDVVTETCMDEAQIAAVCRECLQALEFLHANQVIHRDIKSDNVLLGMEGSVKLTDFGFCAQITPEQSKRSTMVGTPYWMAPEVVTRKAYGPKVDIWSLGIMAIEMVEGEPPYLNENPLRALYLIATNGTPELQNPEKLSPIFRDFLNRCLEMDVEKRGSAKELLQHPFLKLAKPLSSLTPLIMAAKEAMKSNR", "values": [{"measurement": "activity (phosphorylation of H4)", "result": 1515, "unit": "pmol/min/mg"}, {"measurement": "autophosphorylation", "result": 0.09, "unit": "mol/mol"}]}
